2 compounds from patent US9663464B2, “Carbazole derivatives acting on 5-HT7 receptor” (KOREA INSTITUTE OF SCIENCE AND TECHNOLOGY, priority 2015, dated 2017) can be followed below.

Chains of the proteins cited; added tags and fusions are not shown.
UniProt P34969, whole entry: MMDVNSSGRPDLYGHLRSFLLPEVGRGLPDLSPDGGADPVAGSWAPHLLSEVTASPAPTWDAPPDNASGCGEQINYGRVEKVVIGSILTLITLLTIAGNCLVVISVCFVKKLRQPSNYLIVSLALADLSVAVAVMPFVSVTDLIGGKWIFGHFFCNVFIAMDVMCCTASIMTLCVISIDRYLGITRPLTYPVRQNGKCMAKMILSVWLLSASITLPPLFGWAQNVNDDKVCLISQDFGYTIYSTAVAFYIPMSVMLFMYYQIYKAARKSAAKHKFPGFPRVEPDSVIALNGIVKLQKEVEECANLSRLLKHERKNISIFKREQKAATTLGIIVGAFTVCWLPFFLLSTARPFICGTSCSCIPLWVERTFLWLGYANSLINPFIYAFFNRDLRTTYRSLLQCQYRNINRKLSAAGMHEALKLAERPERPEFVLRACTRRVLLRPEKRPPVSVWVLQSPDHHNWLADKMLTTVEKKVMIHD

Structures are written as SMILES. Structures can show the parent of a compound that is named as a salt.

In the experiment the target is T1, human gene recombinant 5-HT7 receptor expressed in CHO cells (Homo sapiens, UniProt P34969).
T1 construct: expressed in transfected cells; host or cells: CHO cells (membrane preparation)
Description: Binding affinity for the 5-HT7 serotonin receptor ([3H]LSD radioligand). The method, then: In this example, the human gene recombinant 5-HT7 receptor expressed in CHO cells was used. 1 nM [^3H]LSD, 5-HT7 receptor membrane (15 μg/well), a test drug, 10 mM MgCl2, 50 mM Tris-HCl buffer (pH 7.4) containing 0.1 mM EDTA, etc. were added to a vessel until the final volume reached 0.25 ml. The test drug was used at various concentrations. The mixture was cultured at 25° C. for 90 min. The culture was rapidly filtered through a Whatman GF/C glass fiber filter, which had been previously wetted with 0.3% polyethyleneimine using a Brandel harvester, to quench the reaction. The reaction mixture was washed with cold 50 mM Tris-HCl buffer. The filter was covered with MeltiLex, sealed in a sample bag, and dried in an oven. Counting was performed using MicroBeta (Wallac) and nonspecific binding was measured in the presence of […]. The K value of the test drug was obtained from nonlinear regression analysis (GraphPad Prism Program, San Diego, USA) of isotherms obtained by repeatedly performing the experiment on the drug at 10-11 stage concentrations in two test tubes (each twice).
The % inhibition values of the inventive compounds having different Y structures at a concentration of 10 μM against the 5-HT7 serotonin receptor were measured. […]

As a reminder, the Ki is a measure of affinity in units of concentration, obtained from inhibition or displacement. `CN(CCCCCC(=O)n1c2ccccc2c2ccccc21)Cc1ccccc1` [Example 2.2, 6-(Benzyl)methyl)amino)-1-(9H-carbazol-9-yl)hexan-1-one hydrochloride]: the Ki amounted to 604 nM.
For the compound `CC1CCN(CCCCCC(=O)n2c3ccccc3c3ccccc32)CC1` [Example 2.4, 1-(9H-carbazol-9-yl)-6-(4-methylpiperidin-1-yl)hexan-1-one], the inhibitory constant (Ki) was found to be 364 nM.
